Results from ChEMBL document CHEMBL5154888, “Design, synthesis, and in vitro and in vivo characterization of new memantine analogs for Alzheimer's disease” (Eur J Med Chem, 2022).

Amino acid sequences for entries named in this document (tags omitted).
UniProt Q00959, whole entry: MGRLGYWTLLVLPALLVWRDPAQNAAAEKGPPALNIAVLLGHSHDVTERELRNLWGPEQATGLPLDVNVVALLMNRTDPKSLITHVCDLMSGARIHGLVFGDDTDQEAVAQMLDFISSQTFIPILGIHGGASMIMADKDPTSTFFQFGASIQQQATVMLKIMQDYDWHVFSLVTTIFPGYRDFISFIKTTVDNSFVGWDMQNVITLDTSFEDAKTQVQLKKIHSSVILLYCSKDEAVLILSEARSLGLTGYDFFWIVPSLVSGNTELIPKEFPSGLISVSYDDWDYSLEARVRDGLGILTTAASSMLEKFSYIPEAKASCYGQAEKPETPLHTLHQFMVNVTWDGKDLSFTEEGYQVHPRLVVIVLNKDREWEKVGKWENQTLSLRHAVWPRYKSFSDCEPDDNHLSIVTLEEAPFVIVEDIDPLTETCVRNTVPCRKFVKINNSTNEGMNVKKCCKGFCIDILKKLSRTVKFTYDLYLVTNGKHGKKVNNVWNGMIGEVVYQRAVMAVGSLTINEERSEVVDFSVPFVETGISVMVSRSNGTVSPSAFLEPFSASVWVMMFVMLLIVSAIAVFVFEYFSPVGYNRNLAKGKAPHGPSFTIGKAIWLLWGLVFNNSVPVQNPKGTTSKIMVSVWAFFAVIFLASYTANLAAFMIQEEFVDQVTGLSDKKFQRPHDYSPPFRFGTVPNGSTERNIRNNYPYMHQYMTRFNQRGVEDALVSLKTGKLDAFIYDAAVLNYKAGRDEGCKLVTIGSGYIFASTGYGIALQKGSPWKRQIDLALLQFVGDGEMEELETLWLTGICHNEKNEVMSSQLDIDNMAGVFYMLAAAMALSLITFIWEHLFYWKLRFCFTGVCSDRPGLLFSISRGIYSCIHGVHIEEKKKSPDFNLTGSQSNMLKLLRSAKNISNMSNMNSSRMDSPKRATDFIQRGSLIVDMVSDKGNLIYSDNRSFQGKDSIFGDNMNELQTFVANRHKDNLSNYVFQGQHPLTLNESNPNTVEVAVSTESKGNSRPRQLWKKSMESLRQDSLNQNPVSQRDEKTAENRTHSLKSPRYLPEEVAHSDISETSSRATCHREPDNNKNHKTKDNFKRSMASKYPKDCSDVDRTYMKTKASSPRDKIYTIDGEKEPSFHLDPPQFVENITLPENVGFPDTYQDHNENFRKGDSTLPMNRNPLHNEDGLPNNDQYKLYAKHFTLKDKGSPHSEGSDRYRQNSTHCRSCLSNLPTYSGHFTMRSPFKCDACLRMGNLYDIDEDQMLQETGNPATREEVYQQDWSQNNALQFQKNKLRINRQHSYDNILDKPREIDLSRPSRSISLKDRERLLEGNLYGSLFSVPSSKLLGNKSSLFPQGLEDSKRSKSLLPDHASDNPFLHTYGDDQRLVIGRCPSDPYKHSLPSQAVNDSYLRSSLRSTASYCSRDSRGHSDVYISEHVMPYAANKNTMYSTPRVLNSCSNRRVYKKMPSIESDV

Molecular target: Glutamate NMDA receptor; Grin1/Grin2a (Rattus norvegicus, UniProt P35439+Q00959)
Assay: Inhibition of eGFP-tagged rat GluN1-1a/GluN2A transfected in human tsA201 cells assessed as inhibition glutamate-induced current measured at -65 mV holding potential applied for 10 secs by whole-cell patch-clamp method
Type: cell-based

SMILES: CC12CC3CC(C)(C1)CC(N)(C3)C2 [MEMANTINE]
- IC50: 1000 nM
